# Measured values published in patent publication US12138383B2, “Heating unit for use in a drug delivery device” (ALEXZA PHARMACEUTICALS, INC., priority 2007, dated 2024).
# Assay: Aerosol purity of condensation aerosol vaporized from drug-coated substrate in substrate screening apparatus (HPLC of filter extract)
# Type: physicochemical
# Source text: The substrate screening apparatus 400 is made of a machined plastic (polyoxymethylene, DELRIN® Acetal Resin, DuPont, Wilmington, DE) block 402 with a 2 cm^2 cross-sectional area for mounting a substrate 412. Block 402 includes a first airway 404 extending from first inlet 414 to outlet 422. Block 402 also include a second airway 406 extending from second inlet 416 to substrate 412, where it typically joins the first airway. The substrate 412 is mounted in the substrate screening apparatus 400 across two electrodes 420. A first air flow 414 is established in first airway 404 and a second air flow 416 is established in second airway 406 such that the second air flow 416 passes from the second airway 406 to first airway 404 through holes in the substrate 412. While providing air flows 414 and 416, the substrate 412 is heated, typically by discharging a capacitor (not shown) across the substrate 412. In a one embodiment, the flow of air passing through holes in the substrate 412 is in a direction orthogonal to that of air flow 414. Substrate 412 is coated with a drug composition film. The substrate 412 is heated to vaporized all or a portion of the drug composition. The vaporized drug subsequently cools and condenses to form a condensation aerosol that is carried to the outlet by air flow 414, joined by air flow 416). Accordingly, the condensation aerosol is emitted from the outlet 422.
# The test substrates were then coated with a drug composition. The drug was typically dissolved in a volatile organic solvent (e.g., dichloromethane/methanol mixture or acetone or other suitable organic solvent) and then spray-coated onto the test substrates using an automated spray coater. Coating parameters, such as the drug concentration in the coating solution, solution flow rate, were selected to obtain a uniform drug coating of the desired coating density (i.e., mass/area).
# Total air flow through the substrate screening apparatus was set by providing air flows 414 and 416 at a desired ratio. […]
compound,measurement,setting,value
CCN(C(C)=O)c1cccc(-c2ccnc3c(C#N)cnn23)c1,aerosol purity,"all four test conditions: perforated polyimide film 3:1 and non-perforated heat-passivated stainless steel, 380° C. and 420° C.",> 99.4%
paroxetine fumarate,aerosol purity,"non-perforated heat-passivated 304 stainless steel, 320° C. and 400° C., 100% air flow across",poor
tizanadine,aerosol purity,"perforated polyimide film, across:bottom 3:1 and 1:3, 350° C.",> 98%
